TDP1 cell noCPT – qHTS for Inhibitors of human tyrosyl-DNA phosphodiesterase 1 (TDP1): qHTS in cells in absence of CPT; DT40 Tdp1-/- hTDP1 cells, no CPT, ATP luminescence, 48 h; Potency, µM (top dose mostly 46.2 µM), for inactives: at the top dose activity change, negative = growth inhibition, most hits filed as inhibitors; 15% of 420,000 active; note: potency is the fitted concentration of half-maximal effect; % is set by controls: 0 for no effect and ±100 for the full control effect; nearly all actives have a fitted effect of over 55% in size
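Chicken DT40 Tdp1-/- cells complemented with human TDP1, screened without camptothecin (DMSO vehicle only), 400 cells/well. Compounds pin-transferred, cells incubated at 37 °C for at least 48 hr. Growth read as ATP-dependent luminescence (CellTiter-Glo, 30 min at RT).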
TDP1 block – TDP1 (human) enzyme inhibition | Potency, µM (doses to about 130 µM), for inactives: at the top dose activity change, negative = inhibition, hits mostly inhibitors | AID 485290 | Q9NUW8 | recombinant TDP1, AlphaScreen DNA substrate cleavage | 0.28% of 350,000 active; note: potency is the fitted concentration of half-maximal effect; % is set by controls: 0 for no effect and ±100 for the full control effect; nearly all actives have a fitted effect of over 40% in size
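Signal: AlphaScreen proximity between streptavidin donor and anti-FITC acceptor beads on intact substrate. Reaction: Tdp1 1 nM, substrate 15 nM final, 5 min RT after 15 min compound preincubation.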
DT40 TDP1 CPT – DT40-hTDP1 cell growth loss with CPT. chicken DT40 Tdp1-/-;hTDP1 cells + 20 nM CPT, ATP luminescence, 48 h. Potency, µM (doses to about 46.2 µM), for the others: at the highest dose activity change, negative = growth inhibition, hits mostly inhibitors. 12% of 420,000 active; note: potency is the fitted concentration of half-maximal effect; % is set by controls: 0 for no effect and ±100 for the full control effect; nearly all actives have a fitted effect of over 55% in size
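Chicken DT40 Tdp1-/- cells stably complemented with human TDP1 were seeded at 400 cells/well in medium containing 20 nM camptothecin, exposed to pin-transferred compounds, and grown at 37 °C for at least 48 hr. Viability was read as ATP luminescence.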
uPA surface inh – cell surface uPA generation inhibition; Potency, µM (doses to about 38.3 µM), for the others: at the highest dose activity change, negative = inhibition, most hits filed as inhibitors; cell surface uPA generation assay, qHTS; AID 540303; 0.31% of 330,000 active; active = well fitted inhibition curve with a large enough effect; inconclusive = small, poorly fitted or top-dose-only effect; inactive = no such curve, though single readings can be large or run the other way; tested in mouse RAW 264.7 cells; note: potency is the fitted concentration of half-maximal effect; % is set by controls: 0 for no effect and ±100 for the full control effect; nearly all actives have a fitted effect of over 55% in size
miR-21 FLuc – miR-21 reporter, rising signal | HeLa miR-21 FLuc reporter, luciferase, 48 h | Potency, µM (top dose mostly 38.3 µM), inactives show at the highest dose reporter change, positive = more light | 340,000 tested, under 10 active | AID 2288; active = well fitted rising curve with a large enough effect; inconclusive = small, poorly fitted or top-dose-only effect; inactive = no such curve, though single readings can be large or run the other way;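 note: % of control where 0% means no effect; miR-21 action dims this reporter so a rising signal means less miR-21 action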
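HeLa cells endogenously expressing miR-21, stably carrying CMV-driven firefly luciferase with a downstream miR-21 binding site, 2000 cells/well. Titrations up to approximately 40 uM, 48 hours; luciferase luminescence read.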
Active calls of the source: *; u = inconclusive; x = no result given; [ ] = remark or other dose. An excerpt weighted towards active compounds, which were near 16% of everything screened. Unless noted, calls come from the whole dose curve; as a rule, active = well fitted curve in the direction sought with a large enough effect; inconclusive = small, poorly fitted or top-dose-only effect, or another doubt; inactive = no such curve, though single readings can be large; an effect the other way counts as inactive or inconclusive.

SMILES	TDP1 cell noCPT	TDP1 block	DT40 TDP1 CPT	uPA surface inh	miR-21 FLuc
CC(C)(C)c1ccc(S(=O)(=O)N2CCN(CCC#N)CC2)cc1	-17%	3%	-11%	6%	1%
O=S(=O)(/C=C/C=C/S(=O)(=O)c1ccccc1)c1ccccc1	0.046µM*	x	0.026µM*	4%	x
CC(C)(C)c1ccc(S(=O)(=O)/C=C\C#N)cc1	0.53µM*	19%[56.1 µM]	0.47µM*	x	x
Cc1ccc(S(=O)(=O)c2ccc(C)cc2)cc1	-12%	-4%	1%	9%	0%
Cc1ccc(N(C)S(=O)(=O)c2ccc(C)cc2)cc1	u	-7%	u	2%	-5%
Cc1ccc(S(=O)(=O)/C=C\C#N)cc1	0.67µM*	17%	0.6µM*	x	x
CC1(C(=O)Nc2ccc3c(c2)OCCO3)CN(S(C)(=O)=O)CC(=O)N1CCc1ccc(O)cc1 (centres undefined)	1%	x	0%	x	x
COc1cc(/C=C2\SC(N)=NC2=O)ccc1O	4.6µM*	5%	12µM*	-9%	30%
NC1=NC(=O)/C(=C/c2cc(Br)c(O)c(Br)c2)S1	0%	x	3%	-9%	-1%
COc1cc(/C=C2\SC(N)=NC2=O)cc(OC)c1	u	-17%	18µM*	2%	0%
COc1ccc(CCNc2nc(-c3ccccn3)cs2)cc1OC	12µM*	x	16µM*	-15%	3%
COc1ccc(CCNc2nc(-c3ccncc3)cs2)cc1OC	u	x	21µM*	2%	7%
COc1ccc(CCNc2nc(-c3ccc(O)cc3)cs2)cc1OC	16µM*	10%	16µM*	u	0%
COc1ccc(CCNc2nc(-c3ccc(F)cc3)c(CC(=O)O)s2)cc1OC	26µM*	12%	15µM*	0%	-1%
Cc1ccc(C)c(/C(O)=C2/C(=O)C(=O)N(CCN3CCOCC3)C2c2ccc(C)o2)c1 (centres undefined)	-8%	1%	-1%	2%	-3%
O=C(C1=C(O)C(=O)N(Cc2ccco2)C1c1cccnc1)c1cc2ccccc2o1 (centres undefined)	u	x	u	-1%	-1%
COc1cccc2cc(C(=O)C3=C(O)C(=O)N(Cc4ccco4)C3c3cccnc3)oc12 (centres undefined)	23µM*	0%	u	-1%	-2%
C=C(CCC(=O)c1ccccc1)C(=O)c1ccccc1	2.1µM*	0%	6.5µM*	-10%	u
C=C(C(=O)c1ccccc1)C(CC(=O)c1ccccc1)c1ccccc1 (centres undefined)	4.6µM*	-5%	4.6µM*	-12%	u
O=C(CCCCCCCC(=O)c1ccccc1)c1ccccc1	-6%	x	u	5%	-1%
O=C(Cc1ccccc1)CC(CC(=O)c1ccccc1)c1ccccc1 (centres undefined)	23µM*	x	16µM*	x	x
CC1CCC2(CC1)C(Nc1cccc(Cl)c1)=NC(=S)N2CC#N (centres undefined)	16µM*	5%	u	-3%	-6%
O=C(NC1CC1)C1Nc2ccc(OC(F)(F)F)cc2C2C=CCC12 (centres undefined)	13µM*	x	u	-12%	x
O=C(NCc1ccccc1)C1Nc2ccc(OC(F)(F)F)cc2C2C=CCC12 (centres undefined)	u	x	23µM*	8%	x
COc1ccc(N2C3=[N+](CC2(C)O)c2ccccc2CC3)cc1 (centres undefined)	-13%	5%	u	x	-18%

Ordered by count of non-hydrogen atoms (highest first): part of the list above.
SMILES	TDP1 cell noCPT	TDP1 block	DT40 TDP1 CPT	uPA surface inh	miR-21 FLuc
COc1ccc(CCNc2nc(-c3ccc(O)cc3)cs2)cc1OC	16µM*	10%	16µM*	u	0%
COc1cc(/C=C2\SC(N)=NC2=O)cc(OC)c1	u	-17%	18µM*	2%	0%
NC1=NC(=O)/C(=C/c2cc(Br)c(O)c(Br)c2)S1	0%	x	3%	-9%	-1%

Other records follow.
SMILES	TDP1 cell noCPT	TDP1 block	DT40 TDP1 CPT	uPA surface inh	miR-21 FLuc
ClCc1nnc(-c2ccccc2)o1	26µM*	5%	u	u	9%
Clc1cccc(-c2nnc(-c3ccccc3)o2)c1	23µM*	2%	16µM*	-9%	-30%
COc1ccc(C2C(C#N)=C(N)N(N(C)C)C3=C2C(=O)CCC3)cc1 (centres undefined)	10%	x	-2%	5%	0%
COCC(=O)N(c1ccccc1)C(C)C(=O)OC (centres undefined)	-19%	5%	-4%	4%	-6%
O=C(CSC1=Nc2ccccc2C2=NC(Cc3ccccc3)C(=O)N12)Nc1ccccc1F (centres undefined)	u	9%	23µM*	x	-4%
O=C(CSC1=Nc2ccccc2C2=NC(Cc3ccccc3)C(=O)N12)Nc1ccccc1C(F)(F)F (centres undefined)	26µM*	6%	u	x	-9%
Cc1cc(NC(=O)CSC2=Nc3ccccc3C3=NC(Cc4ccccc4)C(=O)N23)n[nH]1 (centres undefined)	-21%	7%	-11%	3%	1%
CN(C)c1ccc(NC(=O)CSC2=Nc3ccccc3C3=NC(CC(=O)NCc4ccccc4)C(=O)N23)cc1 (centres undefined)	-11%	9%	-8%	x	-33%
Cc1ccc2cc(C#N)c(SCC(=O)N3CCCC3)nc2c1	u	x	-8%	-4%	-52%
Cc1cccc(-n2c(Cc3cc(=O)[nH]c(=O)[nH]3)nnc2SCC(=O)NCc2ccco2)c1	5%	x	-3%	-1%	x
Nc1nnc(-c2ccc([N+](=O)[O-])o2)s1	9.2µM*	x	18µM*	-15%	x
COc1ccc(CN(C)CC(O)COC(c2ccccc2)c2ccccc2)c(OC)c1OC (centres undefined)	u	2%	u	-3%	u
COc1ccc(CN(C)CC(O)COc2ccc(C(=O)c3ccccc3)cc2)c(OC)c1OC (centres undefined)	16µM*	0%	u	-10%	17%
Cc1cc(Cl)c(S(=O)(=O)NC(C(=O)O)c2ccccc2)cc1OCC(N)=O (centres undefined)	-7%	-2%	2%	6%	-3%
Cc1cc(C)nc(NC(N)=NC2CCCCC2)n1	12µM*	1%	15µM*	-5%	6%
O=C1c2[nH]nc(-c3ccccc3O)c2C(c2cccc(Cl)c2)N1Cc1cccnc1 (centres undefined)	u	5%	u	x	12%
COc1cccc(C2c3c(-c4cc(Cl)c(C)cc4O)n[nH]c3C(=O)N2Cc2cccnc2)c1 (centres undefined)	16µM*	4%	u	-3%	-14%
COc1ccc(CCN2C(=O)c3[nH]nc(-c4ccccc4O)c3C2c2cccc(Cl)c2)cc1 (centres undefined)	21µM*	10%	23µM*	-9%	26%
COc1ccc(CCN2C(=O)c3[nH]nc(-c4ccccc4O)c3C2c2cccc(OC)c2)cc1 (centres undefined)	18µM*	10%	u	x	u
COCCN1C(=O)c2[nH]nc(-c3ccccc3O)c2C1c1ccc(Cl)c(Cl)c1 (centres undefined)	9.2µM*	12%	18µM*	x	u

Random excerpt: five records from the list, in no set order.
SMILES	TDP1 cell noCPT	TDP1 block	DT40 TDP1 CPT	uPA surface inh	miR-21 FLuc
Cc1ccc(C)c(/C(O)=C2/C(=O)C(=O)N(CCN3CCOCC3)C2c2ccc(C)o2)c1 (centres undefined)	-8%	1%	-1%	2%	-3%
COc1cccc(C2c3c(-c4cc(Cl)c(C)cc4O)n[nH]c3C(=O)N2Cc2cccnc2)c1 (centres undefined)	16µM*	4%	u	-3%	-14%
COc1ccc(CCNc2nc(-c3ccccn3)cs2)cc1OC	12µM*	x	16µM*	-15%	3%
O=C(CSC1=Nc2ccccc2C2=NC(Cc3ccccc3)C(=O)N12)Nc1ccccc1C(F)(F)F (centres undefined)	26µM*	6%	u	x	-9%
COc1ccc(CCNc2nc(-c3ccc(F)cc3)c(CC(=O)O)s2)cc1OC	26µM*	12%	15µM*	0%	-1%

Source: PubChem (National Center for Advancing Translational Sciences (NCATS))
